Results taken from PubChem BioAssay AID2521 (Sanford-Burnham Center for Chemical Genomics, 2010).
Only a part is listed here, and it is no random draw. Some results for these compounds are left out of this collection, so the calls shown say nothing about other tests. Active and inactive are the calls of the source.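 Rule for the calls: active = inhibition above about 40% at 20 µM (limit read from the data); inactive = the rest.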

Sequences of proteins named here, by UniProt entry; tags and fusion partners are left off.
UniProt P35414, whole entry: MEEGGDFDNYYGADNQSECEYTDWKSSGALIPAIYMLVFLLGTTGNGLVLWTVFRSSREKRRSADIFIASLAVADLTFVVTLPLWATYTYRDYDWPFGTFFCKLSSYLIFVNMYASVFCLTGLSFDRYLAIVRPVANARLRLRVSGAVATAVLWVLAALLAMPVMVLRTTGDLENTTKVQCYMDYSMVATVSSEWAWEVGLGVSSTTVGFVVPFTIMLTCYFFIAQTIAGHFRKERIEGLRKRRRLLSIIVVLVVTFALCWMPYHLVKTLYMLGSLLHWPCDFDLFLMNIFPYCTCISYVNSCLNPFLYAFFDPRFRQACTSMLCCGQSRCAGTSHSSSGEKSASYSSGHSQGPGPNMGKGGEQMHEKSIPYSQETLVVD

Target: Apelin receptor (Homo sapiens) (UniProt P35414)
Assay: antagonists of human apelin receptor APJ, primary screen, CHO-K1 cells, beta-arrestin complementation, luminescence (AID 2521);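 note: cells challenged with 10 nM apelin-13 agonist together with compound; plate controls were apelin-13 plus DMSO wells for no effect and DMSO wells lacking apelin-13 for full effect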
Conditions: at 20 µM, hits give high values

Row | SMILES | inhibition
1 | O=C(OC1CN2CCC1CC2)C(CO)(c1ccccc1)c1ccccc1 (centres undefined) | inactive: 5.81%
2 | COc1ccc(Br)c(C(=O)NCC2(N3CCCCC3)CCCCC2)c1 | inactive: 10.1%
3 | CC(C)Oc1ccc(C(=O)NCC2(N(C)C)CCCCC2)cc1 | inactive: -2.77%
4 | CN(C)c1cccc(C(=O)NCC2(N(C)C)CCCCC2)c1 | inactive: 4.89%
5 | CN(C)C1(CNC(=O)c2ccc(Br)cc2)CCCCC1 | inactive: -32.7%
6 | COc1cc(C(=O)NCC2(N(C)C)CCCCC2)c([N+](=O)[O-])cc1OC | inactive: -4.27%
7 | COc1ccc(Cl)cc1C(=O)NCC1(N(C)C)CCCCC1 | inactive: 8.81%
8 | COc1cccc(C(=O)NCC2(N3CCCCC3)CCCCC2)c1 | inactive: 3.13%
9 | O=C(NCC1(N2CCCCC2)CCCCC1)c1cccc(Cl)c1 | inactive: -1.87%
10 | CN(C)C1CCCC1OC(=O)C(O)(c1ccccc1)c1ccccc1 (centres undefined) | inactive: -16.2%
11 | CN(C)c1ccc(C(=O)NCC2(N(C)C)CCCCC2)cc1 | inactive: 13%
12 | Cc1ccccc1C(=O)NCC1(N2CCCCC2)CCCCC1 | inactive: 3.29%
13 | O=C(NCC1(N2CCCCC2)CCCCC1)c1cc(F)c(F)cc1Cl | inactive: -0.76%
14 | C=CCN1CCN(CCOC(=O)C(O)(c2ccccc2)c2ccccc2)CC1 | inactive: -24.8%
15 | COc1ccc(C(=O)NCC2(N(C)C)CCCCC2)cc1 | inactive: -19.4%
16 | O=C(NCC1(N2CCCCC2)CCCCC1)c1cccc(Br)c1 | inactive: -1.65%
17 | Cc1cc(C(=O)NCC2(N3CCCCC3)CCCCC2)ccc1[N+](=O)[O-] | inactive: 5.86%
18 | CCN1CCCC(OC(=O)C2(O)c3ccccc3C=Cc3ccccc32)C1 (centres undefined) | inactive: -0.165%
19 | O=C(NCC1(N2CCCCC2)CCCCC1)c1cc([N+](=O)[O-])ccc1Cl | inactive: -9.95%
20 | CN1[C@@H]2CC[C@H]1CC(OC(=O)C(O)(c1ccccc1)c1ccccc1)C2 (some centres undefined) | inactive: -11.9%
21 | COc1cc(SC)ccc1C(=O)NCC1(N(C)C)CCCCC1 | inactive: 11%
22 | CCN(CC)CC(C)C(C)OC(=O)C(O)(c1ccccc1)c1ccccc1 (centres undefined) | inactive: -34.5%
23 | CC(C)N1C(=O)CC2(CCN(CCOC(=O)C(O)(c3ccccc3)c3ccccc3)CC2)C1=O | inactive: 5.21%
24 | Cc1ccc(C(=O)NCC2(N3CCCCC3)CCCCC2)cc1 | inactive: 28.3%
